Assay results: PMC4776135, “Small Molecule Inhibition of Ligand-Stimulated RAGE-DIAPH1 Signal Transduction” (Scientific Reports, 2016)

What was measured:
Tnfa mRNA in kidney = assay: CML-AGE infusion in vivo, kidney Tnfa mRNA; conditions: mice; four doses 5 mg/kg i.p. every 12 h; CML-AGE 150 µg i.p.; kidney 4 h later; p < 0.05
[1] = test system: phospho/total ERK1/2 in primary murine aortic SMCs; assay: CML-AGE-stimulated ERK1/2 phosphorylation, Western blot; conditions: 1 µM compound, 1.5 h pretreatment; CML-AGE 10 µg/ml 20 min; p < 0.05
[2] = test system: diabetic mouse heart (ex vivo); assay: Isolated perfused diabetic heart, ischemia/reperfusion, LVDP recovery; conditions: streptozotocin-diabetic mouse hearts ex vivo; 1 µM compound; 30 min ischemia, 60 min reperfusion; p < 0.05
[3] = test system: Il6 mRNA in primary murine aortic endothelial cells (MAECs); assay: CML-AGE-mediated upregulation of Il6 mRNA, real-time quantitative PCR; conditions: 1 µM compound 1.5 h, CML-AGE 10 µg/ml 6 h
[4] = test system: phospho/total Akt in primary murine aortic SMCs; assay: CML-AGE-stimulated Akt phosphorylation, Western blot; conditions: 1 µM compound, 1.5 h pretreatment; CML-AGE 10 µg/ml 20 min; p < 0.05

| SMILES | effect on CML-AGE-mediated upregulation of Tnfa mRNA in kidney (Tnfa mRNA in kidney) | effect on CML-AGE-mediated phospho/total ERK1/2 [1] | left ventricular developed pressure (LVDP) functional recovery after ischemia/reperfusion vs DMSO vehicle [2] | effect on CML-AGE-mediated upregulation of Il6 [3] | effect on CML-AGE-mediated stimulation of phospho/total-Akt [4] |
| --- | --- | --- | --- | --- | --- |
| COC(=O)c1cc(-c2ccc(NC(C)=O)cc2)nc2ccccc12 | significant suppression | significant suppression | statistically-significantly higher LVDP | significant suppression | significant suppression |
| Cc1cc2n(c1)CCn1c(C)ccc1-2 | significant suppression | significant suppression |  |  | significant suppression |
| CC1=NN(c2nc3ccccc3[nH]2)C(=O)C1CCC(C)C (centres unmarked) | significant suppression | significant suppression | statistically-significantly higher LVDP | significant suppression | significant suppression |
| Cc1c(Cl)cccc1NC(=O)CNC(=O)c1ccccc1F | significant suppression | did not significantly affect |  | significant suppression | did not significantly suppress |
